The assay deals with A172 glioblastoma cells (cell surface uPAR). The assay is described as follows: Flow cytometry antibody recruiting assay, A172 cells. The following applies: tested form: ammonium formate salt. How it is done:
Next, we tested the ability of ARM-U2 derivatives to recruit anti-DNP antibodies to the surface of A-172 and B-16 cancer cells over-expressing uPAR. These assays involved the incubation of ARM-U2 derivatives with target cancer cells followed by the addition of biotinylated anti-DNP antibodies and streptavidin-AlexaFluor conjugates. After several washing steps, the amount of bifunctional ARM-U2 compound bound simultaneously to both the cell surface and anti-DNP antibodies was detected using flow cytometry by observing shifts in FL-2 and FL-3 fluorescence. These experiments were also conducted on both B16+uPAR cell lines and B16−uPAR cell lines in addition to studies on A172 cells in the presence and absence of exogenously added competitor uPAR to assess selective binding to the cell surface via cell surface uPAR.
A172 glioblastoma cells (ATCC, CRL-1620) were suspended in Assay Media (phenol-free RPMI 1640 medium plus 10% ultra-low IgG FBS). 10^5 cells taken up in 50 μl media or media containing exogenous uPAR were mixed with a fixed concentration of the indicated ARM-U2 compound from 100×DMSO stocks. After a 1 hour incubation on ice, cells were washed with 1.5 mL of cold Assay Media, pelleted for 2 min at 200 rcf, aspirated, and resuspended in 100 L of fresh assay media with 133 nM of anti-DNP-biotin-xx conjugate antibody[…] (Invitrogen). Cells were allowed to incubate for an additional 30 min on ice, L of a 2 mg/mL stock of streptavidin-AlexaFluor647 conjugate[…] and then 1 (Invitrogen) was added. Negative control tubes contained streptavidin+/−antibody in the absence of ARM-U2. After 15 min more on ice, cells were washed 2× with 1.5 mL of cold Assay Media before flow cytometric analysis. Propidium iodide was added from a 1000× stock as a cell viability stain (FL-3 positive) and antibody recruiting to the cell surface was evaluated by measuring increasing cell counts in the FL-4 channel negative for FL-3 (lower right quadrant of representative dot plots). […]
(Flow cytometry measures light scatter and fluorescence of single cells or particles in a stream.)

Each structure is given as a SMILES string.

In the case of `O=C1c2ccccc2-c2onc3c(N4CCC[C@H](C(=O)NCCCOCCOCCOCCCNc5ccc([N+](=O)[O-])cc5[N+](=O)[O-])C4)cc(Nc4ccc(S(=O)(=O)O)cc4S(=O)(=O)O)c1c23`, the “anti-DNP antibody recruiting to A172 cells” value is recorded as “recruited antibodies significantly better than the other ABT-1 derivatives”. The “anti-DNP antibody recruiting to A172 cells, FL-4 shift” value (10 uM compound, compared with 1-ABT-1) is reported as “significantly higher percentage of antibody binding to the cell surface”. Also, under “exogenous competitor uPAR added”, the “anti-DNP antibody recruiting to A172 cells with exogenous competitor uPAR” value was “antibody recruitment could be disrupted”.

The values above are taken from patent US10633374B2, “Small molecule based antibody-recruiting compounds for cancer treatment” (YALE UNIVERSITY, priority 2015, dated 2020).
